Values quoted from earlier work in patent US20030083321A1, “Composition and method for minimizing or avoiding adverse effects of vesicants” (published 2003).
Read-outs that look alike come from different tables or passages of the source.

Amino acid sequences for entries named in this document (tags omitted). Residues count along the entry.
UniProt P78536, 215-824 limits assumed: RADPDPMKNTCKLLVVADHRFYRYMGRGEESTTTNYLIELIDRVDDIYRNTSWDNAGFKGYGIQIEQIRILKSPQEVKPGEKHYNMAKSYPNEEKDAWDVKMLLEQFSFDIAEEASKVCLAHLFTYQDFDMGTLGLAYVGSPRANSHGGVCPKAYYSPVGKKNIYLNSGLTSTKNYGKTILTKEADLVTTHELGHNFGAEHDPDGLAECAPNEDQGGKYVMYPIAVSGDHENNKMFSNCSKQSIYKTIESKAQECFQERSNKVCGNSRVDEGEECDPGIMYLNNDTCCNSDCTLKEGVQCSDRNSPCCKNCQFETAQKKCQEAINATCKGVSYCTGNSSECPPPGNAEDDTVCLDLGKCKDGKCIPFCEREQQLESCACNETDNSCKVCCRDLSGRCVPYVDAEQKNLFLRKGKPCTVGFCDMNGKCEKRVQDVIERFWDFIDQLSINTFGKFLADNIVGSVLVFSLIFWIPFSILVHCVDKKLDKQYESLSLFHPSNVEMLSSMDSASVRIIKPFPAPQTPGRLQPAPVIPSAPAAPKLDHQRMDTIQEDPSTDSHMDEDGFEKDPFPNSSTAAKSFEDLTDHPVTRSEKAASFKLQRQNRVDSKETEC

Columns and labels:
[1] = tested on: protease which can be stimulated by exposure of NHEK cells to mustard in the presence of calcium ions; details: for inhibition of mustard-stimulated protease: NHEK cells; for inhibition of proteolytic activity: 1 mM concentration
[2] = molecular target: TNF-alpha converting enzyme (Homo sapiens, UniProt P78536)

C[C@@H]1C[C@@H]([C@H](O)CC2CC(=O)NC(=O)C2)C(=O)[C@@H](C)C1
inhibition of mustard-stimulated protease ([1]; 35 µM in the extracellular medium): completely inhibited

CC(C)CC(=O)N[C@H](C(=O)N[C@H](C(=O)N[C@@H](CC(C)C)[C@@H](O)CC(=O)N[C@@H](C)C(=O)N[C@@H](CC(C)C)[C@@H](O)CC(=O)O)C(C)C)C(C)C
inhibition of proteolytic activity [1]: not inhibited

CNC(=O)[C@H](Cc1c[nH]c2ccccc12)NC(=O)[C@@H](CC(=O)NO)CC(C)C
inhibition of TNF-alpha converting enzyme, preventing release of soluble TNF-alpha [2]: ability to inhibit the TNF-alpha converting enzyme

EGTA
inhibition of mustard-stimulated protease ([1]; 2 mM in the extracellular medium): completely inhibited

CC(=O)N[C@@H](CC(C)C)C(=O)N[C@@H](CC(C)C)C(=O)N[C@H](C=O)CCCNC(=N)N
inhibition of proteolytic activity [1]: inhibited
